Drawing on PubChem BioAssay (NCI), this text covers growth inhibition for 10 compounds.

Only a part is listed here, and it is no random draw. Some compounds were tested as several samples or in several runs, with calls that do not always agree. Active and inactive are the calls of the source. No stated cut-off is given here; in the data, active means growth inhibition above about 70%; inactive means the rest.

Test [1] in a line: NCI Yeast Anticancer Drug Screen. Data for the rad50 strain (AID 155).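 Further: 0% = growth of vehicle-only cultures of the same strain.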 Particulars: S. cerevisiae rad50 strain growth inhibition, stronger effect = higher value.
A short description of test [2]: NCI Yeast Anticancer Drug Screen. Data for the mec2-1 strain (AID 157). Particulars: S. cerevisiae mec2-1 strain, stronger effect = higher value.
Test [3] can be described thus: NCI Yeast Anticancer Drug Screen. Data for the sgs1 mgt1 strain (AID 161).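 Further: 0% = growth of cultures given vehicle only.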 The conditions noted are these: S. cerevisiae sgs1 mgt1 strain, stronger effect = higher value.
Test [4] can be described thus: NCI Yeast Anticancer Drug Screen. Data for the cln2 rad14 strain (AID 165).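 Further: 0% = growth equal to vehicle treated cultures.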 Particulars: S. cerevisiae cln2 rad14 strain, stronger effect = higher value.
Test [5] is described as follows: NCI Yeast Anticancer Drug Screen. Data for the bub3 strain (AID 167). Particulars: S. cerevisiae bub3 mutant strain, stronger effect = higher value.
Test [6] is described as follows: NCI Yeast Anticancer Drug Screen. Data for the mlh1 rad18 strain (AID 175). The conditions noted are these: S. cerevisiae mlh1 rad18 strain growth inhibition, stronger effect = higher value.
Where [7] appears, read: at 5.0 µM (retest, dose inferred, filed as 0.5).
The mark [8] stands for this setting: at 50.0 µM (retest, dose inferred, filed as 5.0).

`O=[N+]([O-])C1([N+](=O)[O-])CC2(Cc3c1no[n+]3[O-])OCCO2`: the growth inhibition in test [1] (setting [7]) was inactive: 28%; in test [1] (setting [8]), active: 98%; in test [1] (at 50.0 µM) it was active: 91.3%; in test [2] (setting [7]), inactive: 19%; in test [2] (setting [8]), active: 96%; in test [2] (at 50.0 µM), active: 92.4%. Further, the growth inhibition in test [3] (setting [7]) is inactive: 40%; in test [3] (setting [8]), active: 99%; in test [3] (at 50.0 µM), active: 92.3%; in test [4] (setting [7]), inactive: 16%; in test [4] (setting [8]), active: 71%; in test [4] (at 50.0 µM), active: 89.3%. Moreover, the growth inhibition was inactive: 8% in test [5] (setting [7]); active: 97% in test [5] (setting [8]); active: 92% in test [5] (at 50.0 µM); inactive: 26% in test [6] (setting [7]); active: 99% in test [6] (setting [8]); active: 90.9% in test [6] (at 50.0 µM).

With `C(=C\c1ccc2ccccc2n1)/c1ccccc1`, the growth inhibition in test [1] (setting [7]) is inactive: -3%; in test [1] (setting [8]) it was inactive: -3%; in test [1] (at 50.0 µM), active: 74.3%; in test [2] (setting [7]), inactive: 0%; in test [2] (setting [8]) it was inactive: 0%; in test [2] (at 50.0 µM), inactive: 17.6%. Also, the growth inhibition in test [3] (setting [7]) was inactive: -6%; in test [3] (setting [8]), inactive: 5%; in test [3] (at 50.0 µM) it was inactive: 33.8%; in test [4] (setting [7]), inactive: 1%; in test [4] (setting [8]), inactive: -15%; in test [4] (at 50.0 µM), active: 96.2%. Also, the growth inhibition in test [5] (setting [7]) is inactive: -3%; in test [5] (setting [8]), inactive: -4%; in test [5] (at 50.0 µM), inactive: 59.2%; in test [6] (setting [7]) it was inactive: -2%; in test [6] (setting [8]), inactive: -8%; in test [6] (at 50.0 µM), inactive: -10.4%.

Turning to `COc1ccc([As]=O)cc1` (configuration not stated), the growth inhibition in test [1] (setting [7]) is active: 95%; in test [1] (setting [8]), active: 100%; in test [1] (at 50.0 µM), active: 99.8%; in test [2] (setting [7]) it was active: 99%; in test [2] (setting [8]), active: 100%; in test [2] (at 50.0 µM) it was active: 99.9%. The growth inhibition is active: 96% in test [3] (setting [7]); active: 100% in test [3] (setting [8]); active: 99.7% in test [3] (at 50.0 µM); active: 96% in test [4] (setting [7]); active: 99% in test [4] (setting [8]); active: 99.6% in test [4] (at 50.0 µM). The growth inhibition in test [5] (setting [7]) is active: 98%; in test [5] (setting [8]), active: 100%; in test [5] (at 50.0 µM) it was active: 99.6%; in test [6] (setting [7]) it was active: 97%; in test [6] (setting [8]), active: 99%; in test [6] (at 50.0 µM), active: 99.8%.

Take `NP(=O)(O)N(CCCl)CCCl`: the growth inhibition in test [1] (setting [7]) is inactive: -3%; in test [1] (setting [8]), active: 73%; in test [1] (at 50.0 µM), active: 83.5%; in test [2] (setting [7]), inactive: 3%; in test [2] (setting [8]), inactive: 29%; in test [2] (at 50.0 µM), inactive: 14.7%. Besides, the growth inhibition in test [3] (setting [7]) was inactive: -1%; in test [3] (setting [8]) it was inactive: 45%; in test [3] (at 50.0 µM), inactive: 25.7%; in test [4] (setting [8]) it was active: 78%.

Consider `CC(=O)Nc1ccc([As]=O)c2ccccc12` (configuration not stated), for which the growth inhibition is active: 93% in test [1] (setting [7]); active: 99% in test [1] (setting [8]); active: 99.2% in test [1] (at 50.0 µM); active: 99% in test [2] (setting [7]); active: 99% in test [2] (setting [8]); active: 99.3% in test [2] (at 50.0 µM). Besides, the growth inhibition in test [3] (setting [7]) is active: 99%; in test [3] (setting [8]) it was active: 99%; in test [3] (at 50.0 µM) it was active: 99.5%; in test [4] (setting [7]) it was active: 98%; in test [4] (setting [8]), active: 99%; in test [4] (at 50.0 µM), active: 99.3%. Moreover, the growth inhibition in test [5] (setting [7]) was active: 99%; in test [5] (setting [8]), active: 98%; in test [5] (at 50.0 µM) it was active: 99.3%; in test [6] (setting [7]) it was active: 99%; in test [6] (setting [8]), active: 99%; in test [6] (at 50.0 µM) it was active: 99.5%.

Consider `CC1CCCc2c1cc(N)c1ccccc21` (configuration not stated), for which the growth inhibition is inactive: 18% in test [1] (setting [7]); inactive: 16% in test [1] (setting [8]); active: 85.6% in test [1] (at 50.0 µM); inactive: 9% in test [2] (setting [7]); inactive: 14% in test [2] (setting [8]); inactive: 67.1% in test [2] (at 50.0 µM). The growth inhibition in test [3] (setting [7]) was inactive: 37%; in test [3] (setting [8]) it was inactive: 10%; in test [3] (at 50.0 µM), active: 90.2%; in test [4] (setting [7]) it was inactive: 12%; in test [4] (setting [8]), inactive: -2%; in test [4] (at 50.0 µM) it was inactive: 2.25%. Besides, the growth inhibition in test [5] (setting [7]) is inactive: 33%; in test [5] (setting [8]), inactive: 49%; in test [5] (at 50.0 µM), inactive: 48.4%; in test [6] (setting [7]) it was inactive: 36%; in test [6] (setting [8]), inactive: 42%; in test [6] (at 50.0 µM) it was active: 89.4%.

As to `Cc1ccc(CN(CCCl)Cc2ccc(C)cc2)cc1`, the growth inhibition in test [1] (setting [7]) is inactive: 7%; in test [1] (setting [8]) it was active: 75%; in test [1] (at 50.0 µM), active: 78.6%; in test [2] (setting [7]), inactive: 1%; in test [2] (setting [8]), active: 87%; in test [2] (at 50.0 µM), inactive: 56.2%. The growth inhibition in test [3] (setting [7]) is inactive: 5%; in test [3] (setting [8]), active: 95%; in test [3] (at 50.0 µM) it was active: 90%; in test [4] (setting [7]), inactive: 1%; in test [4] (setting [8]) it was inactive: 50%; in test [4] (at 50.0 µM), inactive: 46.4%. Moreover, the growth inhibition in test [5] (setting [7]) was inactive: 3%; in test [5] (setting [8]), active: 83%; in test [5] (at 50.0 µM), inactive: 58%; in test [6] (setting [7]), inactive: 29%; in test [6] (setting [8]), active: 97%; in test [6] (at 50.0 µM) it was active: 97.8%.

As to `CCC(CO)Nc1c([N+](=O)[O-])cc([N+](=O)[O-])cc1[N+](=O)[O-]` (configuration not stated), the growth inhibition in test [1] (setting [7]) is inactive: 7%; in test [1] (setting [8]), active: 85%; in test [1] (at 50.0 µM), active: 88.9%; in test [2] (setting [7]) it was inactive: 9%; in test [2] (setting [8]), active: 94%; in test [2] (at 50.0 µM), active: 86.5%. In addition, the growth inhibition in test [3] (setting [7]) is inactive: 3%; in test [3] (setting [8]), active: 93%; in test [3] (at 50.0 µM) it was active: 94.2%; in test [4] (setting [7]), inactive: 4%; in test [4] (setting [8]) it was active: 91%; in test [4] (at 50.0 µM), active: 92.3%. The growth inhibition in test [5] (setting [7]) is inactive: 12%; in test [5] (setting [8]), active: 87%; in test [5] (at 50.0 µM), active: 90.5%; in test [6] (setting [7]), inactive: 18%; in test [6] (setting [8]), active: 94%; in test [6] (at 50.0 µM), active: 95.7%.

Consider `ClC(SSC(Cl)C(Cl)(Cl)Cl)C(Cl)(Cl)Cl` (configuration not stated), for which the growth inhibition was active: 99% in test [1] (setting [7]); active: 99% in test [1] (setting [8]); inactive: 59.2% in test [1] (at 50.0 µM); active: 100% in test [2] (setting [7]); active: 99% in test [2] (setting [8]); inactive: 43.6% in test [2] (at 50.0 µM). Besides, the growth inhibition was active: 71% in test [3] (setting [7]); active: 98% in test [3] (setting [8]); active: 72% in test [3] (at 50.0 µM); inactive: 59% in test [4] (setting [7]); active: 97% in test [4] (setting [8]); inactive: 22.6% in test [4] (at 50.0 µM). For the same compound, the growth inhibition is active: 90% in test [5] (setting [7]); active: 99% in test [5] (setting [8]); active: 77.2% in test [5] (at 50.0 µM); active: 100% in test [6] (setting [7]); active: 99% in test [6] (setting [8]); inactive: 69.8% in test [6] (at 50.0 µM).

As to `CCOC(=O)C1COP(=O)(N(CCCl)CCCl)N1` (configuration not stated), the growth inhibition in test [1] (setting [7]) is inactive: 1%; in test [1] (setting [8]) it was inactive: -1%; in test [1] (at 50.0 µM) it was inactive: -17.7%; in test [2] (setting [7]), inactive: -2%; in test [2] (setting [8]) it was inactive: 3%; in test [2] (at 50.0 µM), inactive: -5.15%. For the same compound, the growth inhibition in test [3] (setting [7]) is inactive: 1%; in test [3] (setting [8]), inactive: -4%; in test [3] (at 50.0 µM), inactive: 4.9%; in test [4] (setting [7]), inactive: -2%; in test [4] (setting [8]), inactive: 3%; in test [4] (at 50.0 µM) it was inactive: 37.2%. Moreover, the growth inhibition is inactive: 0% in test [5] (setting [7]); inactive: -1% in test [5] (setting [8]); inactive: 5.3% in test [5] (at 50.0 µM); inactive: 0% in test [6] (setting [7]); inactive: 6% in test [6] (setting [8]); inactive: 1.05% in test [6] (at 50.0 µM).
